Measured values published in patent publication US8377943B2, “2,4-diaminopyrimidine derivates as PTK2-inhibitors for the treatment of abnormal cell growth” (Boehringer Ingelheim International GmbH, priority 2008, dated 2013).

By UniProt entry, the sequences of proteins in these tests, tags left out.
UniProt Q05397, whole entry: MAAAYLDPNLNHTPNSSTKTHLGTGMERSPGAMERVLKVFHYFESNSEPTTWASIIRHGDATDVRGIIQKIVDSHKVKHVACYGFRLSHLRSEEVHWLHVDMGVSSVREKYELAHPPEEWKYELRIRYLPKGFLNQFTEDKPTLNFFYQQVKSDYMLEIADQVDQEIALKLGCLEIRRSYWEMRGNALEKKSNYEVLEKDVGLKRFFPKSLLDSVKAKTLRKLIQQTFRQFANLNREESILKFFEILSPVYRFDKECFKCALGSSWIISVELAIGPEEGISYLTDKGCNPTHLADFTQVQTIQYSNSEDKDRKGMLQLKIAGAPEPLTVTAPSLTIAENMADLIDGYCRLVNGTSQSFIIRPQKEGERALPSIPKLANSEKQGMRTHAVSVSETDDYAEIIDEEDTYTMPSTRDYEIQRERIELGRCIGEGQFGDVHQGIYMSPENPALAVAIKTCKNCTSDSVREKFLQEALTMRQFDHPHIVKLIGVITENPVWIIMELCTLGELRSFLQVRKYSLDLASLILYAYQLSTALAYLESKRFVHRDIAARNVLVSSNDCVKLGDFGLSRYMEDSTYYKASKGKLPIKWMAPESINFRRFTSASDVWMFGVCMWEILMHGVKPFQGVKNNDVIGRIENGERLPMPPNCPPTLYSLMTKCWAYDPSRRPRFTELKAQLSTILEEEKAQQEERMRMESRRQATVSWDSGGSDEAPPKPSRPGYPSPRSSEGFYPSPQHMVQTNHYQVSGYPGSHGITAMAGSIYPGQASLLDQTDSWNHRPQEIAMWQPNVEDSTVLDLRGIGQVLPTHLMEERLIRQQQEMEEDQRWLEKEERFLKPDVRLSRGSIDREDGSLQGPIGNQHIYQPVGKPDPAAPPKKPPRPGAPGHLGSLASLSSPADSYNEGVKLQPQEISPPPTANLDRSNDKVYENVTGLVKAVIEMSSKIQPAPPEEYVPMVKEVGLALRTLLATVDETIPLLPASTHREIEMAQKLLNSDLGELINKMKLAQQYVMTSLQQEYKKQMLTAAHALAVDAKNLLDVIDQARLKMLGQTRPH

Key:
[1] = molecular target: PTK2 (Homo sapiens, UniProt Q05397); test: PTK2 Enzyme Test (DELFIA assay, poly-Glu-Tyr substrate); conditions: read-out: PTK2 IC50; active PTK2 enzyme, 50 μM ATP in ATP Mix, 1 h pre-incubation
[2] = molecular target: PTK2-phosphorylation at tyrosine 397 (pY397) (Homo sapiens, UniProt Q05397); test: Phospho-PTK2 (pY397) Assay in PC-3 cells; conditions: read-out: PC3pPTK2 Y397 EC50; PC-3 prostate carcinoma cells, 2 h incubation

IC50 [1]: 3 nM
EC50 [2]: 0.32 nM
SMILES: COc1cc(C(=O)N[C@H]2CCN(C)C[C@@H]2F)c(F)cc1Nc1ncc(C(F)(F)F)c(NCc2ccc(C)cc2N(C)S(C)(=O)=O)n1
